From US11519901B2, “Method for screening for cancer therapeutic agent” (THE UNIVERSITY OF TOKYO, priority 2015, dated 2022)

Experiments:
[1] = test system: EGFR mutated lung cancer cell line HCC827; experiment: PODXL expression by RT-PCR in HCC827 introduced with reprogramming factor (4F); format: cell-based, human; conditions: 4F-introduced HCC827, treated with IC50 concentration of drug
[2] = test system: lung cancer cell line A549 having wild-type EGFR; experiment: PODXL expression by RT-PCR in A549 introduced with reprogramming factor (4F); format: cell-based, human; conditions: A549, gefitinib treatment upon 4F introduction; Gef 10 mM or 50 mM (FIG. 4B legend)
[3] = test system: EGFR mutation lung cancer cell line HCC827; conditions: stated as known; cited from earlier work

COc1cc2ncnc(Nc3ccc(F)c(Cl)c3)c2cc1OCCCN1CCOCC1 [gefitinib]
PODXL expression [1]: promoted
PODXL expression [2]: did not increase
sensitivity of cell line to drug [3]: sensitive
